EP0892802B1, “SPIRO(CYCLOPENT(B)INDOLE-PIPERIDINES) AND N-PHENYL-HYDRAZON INTERMEDIATES FOR THEIR PREPARATION, BOTH BEING ACETYLCHOLINESTERASE AND MAO INHIBITORS” (priority 1996, dated 1997)

By UniProt entry, the sequences of proteins in these tests, tags left out.
UniProt P19643, whole entry: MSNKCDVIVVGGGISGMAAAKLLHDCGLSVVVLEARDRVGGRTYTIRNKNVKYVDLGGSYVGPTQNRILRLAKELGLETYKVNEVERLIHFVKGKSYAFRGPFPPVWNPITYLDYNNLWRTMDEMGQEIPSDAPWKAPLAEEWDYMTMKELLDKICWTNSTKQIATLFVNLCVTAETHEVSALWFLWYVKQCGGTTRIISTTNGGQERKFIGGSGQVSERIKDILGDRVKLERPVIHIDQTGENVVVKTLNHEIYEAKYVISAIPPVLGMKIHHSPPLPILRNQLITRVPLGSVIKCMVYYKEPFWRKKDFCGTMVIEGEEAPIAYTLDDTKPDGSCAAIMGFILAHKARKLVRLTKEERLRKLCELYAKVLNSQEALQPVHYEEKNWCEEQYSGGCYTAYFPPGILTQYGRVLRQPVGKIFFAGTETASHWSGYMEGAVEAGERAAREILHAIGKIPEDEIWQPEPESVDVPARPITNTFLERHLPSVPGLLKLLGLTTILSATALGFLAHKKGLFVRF

Biological target: T1, monoamine oxidase-B (Rattus norvegicus, UniProt P19643)
T1 construct: serves as the tissue source for mitochondrial monoamine oxidase; from tissue; host or cells: rat whole brain minus cerebellum, P2 (crude mitochondrial) pellet
Assay: in vitro inhibition of monoamine oxidase assay (modified Kindt), MAO-B
Assay type: biochemical, Male Wistar rats
Conditions: rat whole brain minus cerebellum, mitochondrial P2 pellet; substrate [14C]-β-phenethylamine 200 µM; preincubated 15 minutes, incubated 30 minutes at 37°C; log-probit analysis
Method: The spiro[cyclopent[b]indole-piperidines] of the present invention are also useful as agents for treating depression. […] In this assay, a modification of an assay described by M. V. Kindt, et al., Europ. J. Pharmacol. 146: 313-318 1988.
The following reagents are prepared: • 1. Phosphate buffer (0.5 M), pH 7.4; 134.4 g dibasic sodium phosphate heptahydrate q.s. to 1 liter in distilled water (A) 17.3 g monobasic sodium phosphate q.s. to 250 ml in distilled water (B) Adjust pH of A to 7.4 by slowly adding B (volumes as needed) Dilute 1:10 in distilled water (0.05 M phosphate buffer, pH 7.4) • 2. 0.25 M Sucrose (phosphate buffered): 21.4 g sucrose, q.s. to 250 ml with 0.05 M phosphate buffer • 3. Substrate for monoamine oxidase-A: • a. serotonin creatine sulphate (5-hydroxytryptamine) is obtained from Sigma Chemical Company. A 5 mM stock solution is made up in 0.01 N-hydrochloric acid. The solution is used to dilute the specific activity of the [^3H]-hydroxytryptamine. • b. […]
• 10 µl 0.5 M phosphate buffer, pH 7.4 • 50 µl water or appropriate drug concentration • 400 µl tissue suspension Tubes are preincubated for 15 minutes at 37°C and the assay is started by adding 40 µl of combined substrate ([^3H]-5-hydroxytryptamine and [^14C]-β-phenethylamine) at 15 second intervals. […] Tissue blank values are determined by adding the acid before the radioactive substrate. […]

COc1cc(Br)c2oc(C3CCNCC3)cc2c1 [brofaromine, reference compound]
IC50: 23.4 µM
